The source made the active and inactive calls. No cut-off for these calls is given here.
Molecular target: c-Myc/Max (Homo sapiens) (UniProt P01106+P61244)
Assay: Binding affinity to His-tagged Myc/Max (unknown origin) expressed in Escherichia coli BL21 at 10 uM by Bio-FET analysis
Procedure, shortened: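 Bio-FET chip screening at 10 μM against monomeric MAX (mMAX), MYC-MAX and MAX-MAX dimers. Heterodimers stabilized by a disulfide through a C-terminal cysteine introduced into the MYC bHLH and MAX constructs.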

Chains of the proteins cited; added tags and fusions are not shown. Lines headed by an entry give the natural chain unless they say otherwise; changes in a name come on top.
UniProt P01106: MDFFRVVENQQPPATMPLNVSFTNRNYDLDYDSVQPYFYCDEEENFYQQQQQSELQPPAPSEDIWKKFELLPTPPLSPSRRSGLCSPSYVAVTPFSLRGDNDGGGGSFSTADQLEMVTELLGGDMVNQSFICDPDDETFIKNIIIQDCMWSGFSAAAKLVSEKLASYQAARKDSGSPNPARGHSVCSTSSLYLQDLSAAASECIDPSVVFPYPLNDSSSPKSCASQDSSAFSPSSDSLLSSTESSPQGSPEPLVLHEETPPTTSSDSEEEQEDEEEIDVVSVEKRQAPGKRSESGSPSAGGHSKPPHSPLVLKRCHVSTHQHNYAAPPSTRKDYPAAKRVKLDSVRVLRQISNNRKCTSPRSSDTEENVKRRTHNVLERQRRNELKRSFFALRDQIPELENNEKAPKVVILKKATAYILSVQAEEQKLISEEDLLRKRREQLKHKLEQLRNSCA
UniProt P61244: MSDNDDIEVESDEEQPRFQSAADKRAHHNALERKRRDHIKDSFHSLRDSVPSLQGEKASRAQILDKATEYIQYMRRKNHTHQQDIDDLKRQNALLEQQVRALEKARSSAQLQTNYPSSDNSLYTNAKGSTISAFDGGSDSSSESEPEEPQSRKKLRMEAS

Activity: inactive
SMILES: NC(=O)c1ccc(-c2cc(-c3ccc([N+](=O)[O-])cc3)nc(-c3ccco3)c2)cc1

Reference: ChEMBL document CHEMBL4229470, “Synthetic molecules for disruption of the MYC protein-protein interface” (Bioorg Med Chem, 2018)
